# Yeast UUG start = modulators of yeast start codon fidelity, primary screen, whole organism, S. cerevisiae, single point, plate reader | AID 602363, 2012 | actives 0.13% (n = 350,000) | activity score, % at 18.7 µM | S. cerevisiae UUG-firefly luciferase reporter, luminescence/redox ratio;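 active means replicate mean at a twofold rise or more, about +100% in these data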;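 further: firefly luciferase made from a UUG start codon reports start codon fidelity; reporter light over untreated wells divided by growth signal over untreated wells; some hits fall short of that in this replicate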
# p-CIP stab down = compounds decreasing mouse p/CIP protein stability; Q05BA5; F442A p/CIP-EGFP cells, EGFP fluorescence, 16 h; decrease of EGFP signal, % at 10 µM; hit rate 0.01% among 290,000;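 active means EGFP signal decrease of at least 30% at 10 µM or well 3 SD below plate mean, unless failing retest; inactive means the rest, including hits failing retest or dose response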
# ABCB6 inh 2 = inhibitors of human ABC transporter ABCB6; Q9NP58; hit rate 0.19% among 360,000; K562-ABCB6 porphyrin accumulation, flow cytometry, 1 h; active compounds read low; fluorescence ratio to DMSO, % at 10 µM; AID 602162;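 active means fluorescence ratio to DMSO below 75%, the collection mean minus 3 SD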;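 further: signal is porphyrin accumulated inside mitochondria; 100% equals median channel fluorescence of DMSO control wells; lower ratio means ABCB6 inhibition with less porphyrin fluorescence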
# Granule exo inh = lytic granule exocytosis inhibition. TALL-104 LAMP-1 surface exposure, flow cytometry; cells stimulated with thapsigargin and PMA. inhibition, % at 10 µM. hit rate 0.66% among 360,000;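 active means inhibition above about 55%, limit read from the data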
# PKA-R2B act = activators of human PKA-R2B complex. P22694+P31323. PKA-R2B holoenzyme dissociation, Cy5-IP20 fluorescence polarization; R2B truncated from residue 108, S112A mutant; 0% DMSO only, 100% 113 µM cGMP. activation, % at 11.4 µM. hit rate 0.079% among 340,000;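 active means activation above a cutoff set at the mean over all compounds plus 3 SD, cut at about 18% in these data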;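 further: higher means more holoenzyme dissociation and a rise in polarization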
# PKA-R1A act = activators of PKA-R1A complex; P00514+P68181; PKA-R1A dissociation, Cy5-IP20 fluorescence polarization; scaled: DMSO 0%, 113 µM cGMP 100%; activation, % at 11.4 µM; hit rate 0.083% among 340,000; AID 504707;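 active means percent activation above the mean of all tested compounds plus 3 SD, cut at about 19% in these data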;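 further: higher means more PKAc released from R1A so a rise in polarization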
# Exocytosis CP01 = lytic granule exocytosis inhibition. shares compounds with Granule exo inh. TALL-104 cells, LAMP-1 externalization, flow cytometry; stimulated with PMA plus thapsigargin. inhibition, % at 10 µM. hit rate 11% among 1,500. AID 651954; in the data active means inhibition above about 60%;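 further: 0% = stimulated vehicle wells and 100% = unstimulated wells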
# * hit, by the source's call; / = no result. Hits are enriched below; roughly 0.94% of the tested compounds scored in any of these assays.
# Short forms: A = Yeast UUG start; B = p-CIP stab down; C = ABCB6 inh 2; D = Granule exo inh; E = PKA-R2B act; F = PKA-R1A act; G = Exocytosis CP01
O=C(Nc1ccc2nc(-c3cccs3)c(-c3cccs3)nc2c1)NC1CC1
  A: -6; B: -3; C: 100; D: 99*; E: -2; F: 4; G: 103*

COc1cn(-c2ccccc2)nc1C(=O)Nc1ccc(C)cc1
  A: -6; B: -12; C: 99; D: 29; E: -5; F: 1; G: /

COc1ccc(C)cc1NC(=O)c1nn(-c2ccccc2)cc1OC
  A: -3; B: -21; C: 96; D: 100*; E: -3; F: 6; G: -1

Cc1ccc(C)c(NC(=O)c2nc(-c3ccccc3)n(-c3ccccc3)n2)c1
  A: -8; B: -3; C: 96; D: 68*; E: -6; F: -4; G: 4

C[C@H](CO)N1C[C@H](C)[C@@H](CN(C)S(=O)(=O)c2cccs2)OCCCC[C@H](C)Oc2ccc(NC(=O)c3ccncc3)cc2C1=O
  A: 4; B: /; C: /; D: /; E: /; F: /; G: /

CCCCCCCN1CCC(=O)N([C@H](CO)CC(C)C)CC1
  A: -17; B: -2; C: 98; D: 81*; E: 9; F: -1; G: -13

CCCCCCCN1CCC(=O)N([C@H](CO)Cc2ccccc2)CC1
  A: -4; B: 7; C: 105; D: 4; E: 1; F: -15; G: /

NC(c1ccccc1)c1csc(NC(=O)Nc2cccc(Cl)c2)n1 (stereo not drawn)
  A: -9; B: /; C: 100; D: -6; E: /; F: /; G: /

NC(CCc1ccccc1)c1csc(NC(=O)Nc2cccc(Cl)c2)n1 (stereo not drawn)
  A: -1; B: /; C: 95; D: 57*; E: /; F: /; G: 10

CC(C)Cc1ccc(C(C)CC2=CCC(CN(C)C)C2=O)cc1 (stereo not drawn)
  A: /; B: /; C: 91; D: 66*; E: -12; F: 1; G: -4

CC(C)Cc1ccc(C(C)/C=C2/CCC(CN3CCCCC3)C2=O)cc1 (stereo not drawn)
  A: /; B: /; C: 89; D: 48; E: 1; F: 3; G: /

COCC(=O)Nc1ccc2c(c1)OC[C@@H](C)N(C)C[C@H](C)[C@H](OC)CN(C)C2=O
  A: -19; B: /; C: /; D: /; E: /; F: /; G: /

CO[C@H]1CN(C)C(=O)c2cc(NS(=O)(=O)c3ccccc3F)ccc2OC[C@@H](C)NC[C@H]1C
  A: -12; B: /; C: /; D: /; E: /; F: /; G: /

COc1ccc2nc3cc(Cl)ccc3c(C#N)c2c1
  A: 2; B: -5; C: 95; D: 0; E: -16; F: -1; G: /

COc1ccc2nc3cc(Cl)ccc3c(Nc3ccc(O)c(CN4CCN(C)CC4)c3)c2c1
  A: /; B: /; C: 92; D: 66*; E: -14; F: 5; G: 75*

O=C(NCC1CCCO1)c1cc(S(=O)(=O)Nc2ccc(Br)cc2)ccc1Cl (stereo not drawn)
  A: /; B: -10; C: 100; D: 83*; E: -4; F: 6; G: -5

O=C(C[C@H]1C=C[C@H](NC(=O)c2cccc(F)c2)[C@@H](CO)O1)NCCN1CCCC1
  A: 13; B: /; C: /; D: /; E: /; F: /; G: /

Cc1ccc(Nc2nc(NCCO)c3ccccc3n2)cc1C
  A: -27; B: 0; C: 99; D: 58*; E: -12; F: -8; G: -2

COc1ccccc1Nc1nc(NCCO)c2ccccc2n1
  A: /; B: 1; C: /; D: /; E: /; F: /; G: /

C(=C\c1ccccc1)/CSc1nnc(-c2cnccn2)n1Cc1ccco1
  A: -15; B: -1; C: 103; D: 63*; E: -4; F: 6; G: -9

CO[C@@H]1CN(C)C(=O)c2ccc(NS(=O)(=O)c3ccccc3Cl)cc2OC[C@H](C)NC[C@H]1C
  A: -5; B: /; C: /; D: /; E: /; F: /; G: /

Cc1onc(-c2ccccc2Cl)c1C(=O)N1CCC(Cc2ccccc2)CC1
  A: /; B: -5; C: 95; D: 84*; E: -15; F: -7; G: -12

CO[C@H]1CN(C)C(=O)c2ccc(NC(=O)C3CCC3)cc2OC[C@@H](C)N(Cc2ccncc2)C[C@H]1C
  A: 11; B: /; C: /; D: /; E: /; F: /; G: /

COc1ccc(S(=O)(=O)N[C@H]2CC[C@H](CC(=O)O)O[C@@H]2CO)cc1
  A: -14; B: /; C: /; D: /; E: /; F: /; G: /

Cc1ccc(-c2cc(C(=O)NCCCN3CCOCC3)c3ccc(Cl)c(C)c3n2)cc1
  A: -18; B: -4; C: 94; D: -6; E: 1; F: -11; G: /

Cc1c(Cl)ccc2c(C(O)CBr)cc(-c3ccccc3)nc12 (stereo not drawn)
  A: -15; B: /; C: 97; D: 64*; E: -11; F: -5; G: -14

CCOc1ccc(Br)cc1S(=O)(=O)Nc1cccc(S(=O)(=O)N2CCOCC2)c1
  A: 7; B: /; C: 98; D: 97*; E: 0; F: 0; G: -14

CCOc1ccc(Br)cc1S(=O)(=O)Nc1cccc(S(=O)(=O)NC2=NCCC2)c1
  A: /; B: 16; C: 97; D: -2; E: -9; F: -5; G: /

CC(=O)Nc1ccc(Nc2nc(-c3c(C)nc4ccccn34)cs2)cc1
  A: -23; B: /; C: 89; D: 75*; E: /; F: /; G: -4

COc1ccccc1CCNC(=O)CCSc1nc(-c2ccco2)cc(C(F)(F)F)n1
  A: /; B: 3; C: 99; D: 64*; E: -1; F: -15; G: -5

COc1ccccc1CCNC(=O)CSc1nc(-c2ccco2)cc(C(F)(F)F)n1
  A: -5; B: -4; C: 105; D: 15; E: 4; F: 1; G: /

COc1ccc(Cc2nnc(NC(=O)C3CCN(C(=O)c4ccco4)CC3)s2)cc1
  A: -7; B: -22; C: 89; D: 57*; E: -2; F: 3; G: -13

Cc1cc(Br)ccc1OCc1nnc(-c2ccccc2)o1
  A: -12; B: /; C: 101; D: 73*; E: /; F: /; G: -5

COc1ccc(-c2nnc(COc3ccc(Br)cc3C)o2)cc1
  A: -18; B: /; C: 93; D: -4; E: /; F: /; G: /

CC(C)CC#Cc1cnc2c(c1)C(=O)N([C@H](C)CO)C[C@H](C)[C@@H](CN(C)Cc1ccccc1F)O2
  A: -4; B: /; C: /; D: /; E: /; F: /; G: /

CCCN(C(=O)COc1ccc(Cl)cc1Cl)c1c(N)n(Cc2ccccc2)c(=O)[nH]c1=O
  A: /; B: -10; C: 97; D: 83*; E: 2; F: 2; G: -3

C/C=C/c1ccc([C@@H]2[C@@H](CO)N(C(C)=O)[C@@H]2CN(C)C(=O)CN(C)C)cc1
  A: 1; B: /; C: /; D: /; E: /; F: /; G: /

COc1cc(CNC2CCCCCCC2)ccc1OCC(N)=O
  A: -12; B: -12; C: 92; D: -8; E: 4; F: 0; G: /

CCOC(=O)c1ccc(NC(=O)COc2ccc(CNC3CCCCC3)cc2OC)cc1
  A: /; B: -4; C: 101; D: 60*; E: 1; F: 0; G: -12

OC(COC(c1ccc(Cl)cc1)c1ccc(Cl)cc1)CN1CCCC1 (stereo not drawn)
  A: -15; B: -21; C: 89; D: 1; E: 2; F: -4; G: /

# Record cards, as listed above. Order of screens: Yeast UUG start | p-CIP stab down | ABCB6 inh 2 | Granule exo inh | PKA-R2B act | PKA-R1A act | Exocytosis CP01
# Listed for CCCCCCCN1CCC(=O)N([C@H](CO)CC(C)C)CC1 → -17 | -2 | 98 | 81* | 9 | -1 | -13
# Listed for COc1ccc(-c2nnc(COc3ccc(Br)cc3C)o2)cc1 → -18 | / | 93 | -4 | / | / | /
# Listed for CO[C@H]1CN(C)C(=O)c2ccc(NC(=O)C3CCC3)cc2OC[C@@H](C)N(Cc2ccncc2)C[C@H]1C → 11 | / | / | / | / | / | /

# Later entries.
# Short forms: A = Yeast UUG start; B = p-CIP stab down; C = ABCB6 inh 2; D = Granule exo inh; E = PKA-R2B act; F = PKA-R1A act; G = Exocytosis CP01
CN1CCN(CC(O)COC(c2ccc(Cl)cc2)c2ccc(Cl)cc2)CC1 (stereo not drawn)
  A: -4; B: 6; C: 92; D: 57*; E: 3; F: 13; G: 17

C[C@H]1CN([C@@H](C)CO)C(=O)Cc2cc(NS(=O)(=O)c3ccccc3)ccc2O[C@@H]1CN(C)C(=O)Nc1ccc(F)cc1
  A: 8; B: /; C: /; D: /; E: /; F: /; G: /

COc1ccccc1NC(=O)c1ccc(C(=O)c2ccccc2)o1
  A: -8; B: 2; C: 98; D: 86*; E: -7; F: -7; G: 0

C=C1c2nc3ccccc3n2C=C(c2ccc(C)cc2)N1c1ccccc1
  A: /; B: /; C: 90; D: 90*; E: -8; F: -5; G: -14

C=C(C)Cn1c(-c2ccccc2)nc2ccccc21
  A: /; B: -7; C: 104; D: 0; E: -1; F: -12; G: /

Cc1noc(C)c1S(=O)(=O)N(C)C[C@H]1Oc2ccc(NS(=O)(=O)c3ccccc3)cc2CC(=O)N([C@@H](C)CO)C[C@H]1C
  A: -10; B: /; C: /; D: /; E: /; F: /; G: /
